Experiment: Photobleaching of dye
Type: physicochemical
Protocol: 1969, 31, 1-13], as a standard.
The desired operating life of the pH and carbon dioxide sensors is 72 hours. The ratiometric measurement of the base peak and the isosbestic point eliminates drift due to fluctuations in signal intensity. As the dye degrades due to photobleaching, however, the decrease in emission reaching the photodetector will yield a decrease in the signal to noise ratio. […] The photobleaching quantum yield was calculated to be 4.5×10^-5 using an Argon ion laser emitting at 514.5 nm. The amount of dye depletion was calculated using the photobleaching quantum yield and the amount of light absorbed by the dye at the sensor tip. The intensity of light reaching the end of the optical fiber was kept between 1 and 3 μW with a duty cycle of 50%. […] Little degradation in the system performance is expected.

loss of dye (20 mmol sodium bicarbonate, 37° C., argon ion laser 514.5 nm, 1.7 mW, 4.25 hours): 6%
photobleaching quantum yield (Argon ion laser 514.5 nm): 4.5×10^-5
Substance: seminaphthorhodaflor-1-carboxylate [SNARF-1C]

— patent publication US5280548A, “Emission based fiber optic sensors for pH and carbon dioxide analysis” (BOC Health Care, Inc., priority 1993, dated 1994)
